# Biological target: T1, dTRPA1 (Drosophila melanogaster, UniProt Q7Z020)
# T1 sequence (Q7Z020 1-1197): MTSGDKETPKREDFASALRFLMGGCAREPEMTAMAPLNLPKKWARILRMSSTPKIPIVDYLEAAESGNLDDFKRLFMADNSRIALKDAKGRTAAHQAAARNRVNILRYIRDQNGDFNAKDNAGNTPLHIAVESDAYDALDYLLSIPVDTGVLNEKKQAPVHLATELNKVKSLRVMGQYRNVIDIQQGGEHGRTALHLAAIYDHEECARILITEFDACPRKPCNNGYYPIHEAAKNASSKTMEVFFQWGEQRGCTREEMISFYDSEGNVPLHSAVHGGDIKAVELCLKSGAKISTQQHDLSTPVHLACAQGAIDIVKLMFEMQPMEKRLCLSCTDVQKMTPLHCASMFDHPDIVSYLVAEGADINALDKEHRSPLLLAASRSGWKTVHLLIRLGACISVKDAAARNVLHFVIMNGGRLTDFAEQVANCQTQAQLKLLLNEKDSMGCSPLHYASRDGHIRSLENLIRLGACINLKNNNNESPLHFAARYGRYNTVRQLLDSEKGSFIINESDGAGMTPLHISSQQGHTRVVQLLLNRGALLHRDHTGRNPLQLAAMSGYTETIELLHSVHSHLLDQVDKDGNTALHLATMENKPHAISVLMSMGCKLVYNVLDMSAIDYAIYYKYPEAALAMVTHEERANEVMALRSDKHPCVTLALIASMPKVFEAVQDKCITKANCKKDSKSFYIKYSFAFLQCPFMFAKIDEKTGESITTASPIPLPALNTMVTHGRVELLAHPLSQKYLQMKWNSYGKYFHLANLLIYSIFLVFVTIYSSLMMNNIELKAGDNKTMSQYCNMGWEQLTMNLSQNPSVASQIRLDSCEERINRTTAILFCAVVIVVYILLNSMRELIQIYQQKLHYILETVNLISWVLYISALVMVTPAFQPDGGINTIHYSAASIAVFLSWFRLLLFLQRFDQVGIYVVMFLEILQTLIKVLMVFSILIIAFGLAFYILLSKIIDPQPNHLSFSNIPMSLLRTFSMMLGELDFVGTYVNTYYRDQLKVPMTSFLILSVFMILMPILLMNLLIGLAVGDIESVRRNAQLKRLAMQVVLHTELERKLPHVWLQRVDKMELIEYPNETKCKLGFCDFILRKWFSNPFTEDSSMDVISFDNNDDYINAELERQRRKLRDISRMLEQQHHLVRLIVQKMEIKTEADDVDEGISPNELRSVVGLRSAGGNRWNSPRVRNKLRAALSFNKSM
# Experiment: Two-electrode voltage clamping on Xenopus laevis oocytes expressing dTRPA1
# Format: cell-based
substance,measurement,value
2-aminoethoxydiphenyl borate [2-APB],Activation of dTRPA1,did not activate
same,Response of dTRPA1 expressing oocytes,did not respond

# — patent US9986740B2, “Methods of identifying insect-TRPA1 modulators” (BRANDEIS UNIVERSITY, priority 2010, dated 2018)
